ChEMBL document CHEMBL2086338, “Design, synthesis, and evaluation of 2-substituted ethenesulfonic acid ester derivatives as protein tyrosine phosphatase 1B inhibitors” (Eur J Med Chem, 2012)

Biological target: T1, Tyrosine-protein phosphatase non-receptor type 1 (Homo sapiens, UniProt P18031)
T1 sequence (P18031 whole entry): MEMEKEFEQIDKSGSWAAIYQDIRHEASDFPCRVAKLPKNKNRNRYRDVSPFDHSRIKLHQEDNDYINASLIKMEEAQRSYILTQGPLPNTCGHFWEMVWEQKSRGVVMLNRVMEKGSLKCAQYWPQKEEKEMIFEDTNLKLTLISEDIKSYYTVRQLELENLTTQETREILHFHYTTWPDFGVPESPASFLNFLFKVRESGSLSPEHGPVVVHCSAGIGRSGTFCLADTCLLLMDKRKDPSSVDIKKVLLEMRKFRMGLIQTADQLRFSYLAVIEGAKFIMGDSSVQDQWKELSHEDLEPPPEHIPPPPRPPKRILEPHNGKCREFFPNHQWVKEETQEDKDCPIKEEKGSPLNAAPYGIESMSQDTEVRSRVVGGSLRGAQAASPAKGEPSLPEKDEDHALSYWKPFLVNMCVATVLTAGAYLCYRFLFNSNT
Assay: Inhibition of human recombinant PTP1B assessed as inhibition of hydrolysis of […] after 10 mins by spectrophotometry

IC50: 4.8 µM
SMILES: CNC(=O)C1Cc2ccc(NS(=O)(=O)O)cc2CN1C(=O)CCc1cccc(NS(=O)(=O)O)c1 (stereo unspecified)
